Data as given in patent US20250084067A1, “PYRAZOLE-SUBSTITUTED CYCLOPENTANOL ESTER DERIVATIVE AND USE THEREOF” (CHIA TAI TIANQING PHARMACEUTICAL GROUP CO., LTD., priority 2022, published 2025).

Key:
[1] = target: CDK2 CycE1 kinase (Homo sapiens (Human), UniProt P24941); experiment: Determination of inhibitory activity against CDK2 CycE1 kinase; assay type: biochemical; conditions: read-out: CDK2/CycE1 10 μM ATP (kinase) IC50
[2] = target: CDK2/CycA2 kinase (Homo sapiens (Human), UniProt P24941); experiment: Determination of inhibitory activity against CDK2/CycA2 kinase; assay type: biochemical; conditions: read-out: CDK2/CycA2 10 μM ATP (kinase) IC50

SMILES | pIC50 [1] | pIC50 [2]
CC(C)NC(=O)O[C@H]1CC[C@@H](c2cc(Nc3ccc4c(c3)CS(=O)(=O)C4)n[nH]2)C1 | > 8.00 | > 8.00
CC(C)NC(=O)O[C@@H]1CC[C@H](c2cc(Nc3ccc4c(c3)CS(=O)(=O)C4)n[nH]2)C1 | > 8.00 | > 8.00

pIC50: −log10 of the molar value.
